Reference: patent US9662390B2, “Use of opioid antagonists to attenuate endothelial cell proliferation and migration” (THE UNIVERSITY OF CHICAGO, priority 2005, dated 2017)

Tested on: Human Microvascular Endothelial Cells (HMVEC)
Type: cell-based

Row | Compound | antagonist dose as low as which morphine-based migration was attenuated | morphine concentration as low as which endothelial cell migration is induced | morphine concentration that causes endothelial cell migration [ng/mL]
1 | C[N+]1(CC2CC2)CCC23c4c5ccc(O)c4OC2C(=O)CCC3(O)C1C5 (stereo not drawn) [MNTX, N-methylnaltrexone] | 10^−8 μM | – | –
2 | CN1CC[C@]23c4c5ccc(O)c4O[C@H]2[C@@H](O)C=C[C@H]3[C@H]1C5 [morphine] | – | 10^−7 M | 100
